Apparent affinities of Ab-14 variants for a coronavirus HR2 peptide

Data: MIT Lincoln Laboratory AlphaSeq set, Engelhart et al. 2022, doi:10.1038/s41597-022-01779-4, as distributed in FLAb.

Target: peptide PDVDLGDISGINAS, taken from heptad repeat 2 (HR2) of SARS-CoV-2 spike.

Each scFv is VH, three GGGGS repeats, VL, as in the parent Ab-14, and differs from it in the CDRs of the light chain only.
VH: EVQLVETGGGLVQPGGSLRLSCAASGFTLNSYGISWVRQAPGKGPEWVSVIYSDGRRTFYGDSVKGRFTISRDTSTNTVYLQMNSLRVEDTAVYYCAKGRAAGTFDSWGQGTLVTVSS
VL: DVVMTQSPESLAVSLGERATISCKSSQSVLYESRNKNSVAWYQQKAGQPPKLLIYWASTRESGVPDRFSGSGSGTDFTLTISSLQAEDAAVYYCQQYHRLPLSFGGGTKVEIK

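The starting antibody came from a phage panning campaign against this peptide. The library (AAYL50) carries one to three amino acid substitutions per variant, with no insertions or deletions. Affinity was read by AlphaSeq, a pooled yeast mating assay with surface-displayed partners. Pairs that bind mate more often; barcode pairs of the diploids are counted by sequencing. The ratio of observed to expected reads was calibrated, replicate by replicate, on BCL2-family standards whose Kd was known from biolayer interferometry. Mating was done three times.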

Each variant is given by its three light chain CDRs, as the data file delimits them; those of the parent are KSSQSVLYESRNKNSVA, WASTRES, QQYHRLPLS.
Scale: log10 of Kd in nM, estimated from mating counts; low values are strong binders.
Averages over replicates are reported, and they cover detected replicates only.
An entry "not detected" has no value in the source: the pair was not observed among the diploids in any replicate. This suggests poor binding but is not conclusive.
For reference, the parent read 0.65 as the reference entry and 1.68 as a member of this library.

| CDR-L1 | CDR-L2 | CDR-L3 | mean log10 Kd (nM) | detected |
|---|---|---|---|---|
| QISQSVLYESRNKNSVA | WASTRES | EQYHRLPLS | 0.37 | 3 of 3 |
| KSSQSVLYESRNKNSVA | WASTRES | QQYYRLPYS | 2.01 | 3 of 3 |
| KSSQSVLYESRNKNWVA | WASTRES | QQYHSLPHS | not detected | 0 of 3 |
| KSSQSVLYPSRNKNSVA | WASTRWS | QQYHRDPLS | 4.05 | 2 of 3 |
| KSTWSVLYESRNKNSVA | WASTRES | QQYIRLPLS | not detected | 0 of 3 |
| KTSQSCLYESLNKNSVA | WASTRES | QQYHRLPLS | 0.63 | 3 of 3 |
| KSSQSVLYESYNKNSVA | WQSTRES | QQYHRLPLW | 2.12 | 3 of 3 |
| KSSQSVLYESRHYNSVA | WASTRES | QQYHILPLS | 1.42 | 3 of 3 |
| KSSQSVTYESRNKNSWA | WASTRES | QQYHRKPLS | not detected | 0 of 3 |
| GDSQSVLYESRNKNSVA | WASTRET | QQYHRLPLS | 2.35 | 3 of 3 |
| KSSTKVHYESRNKNSVA | WASTRES | QQYHRLPLS | 1.66 | 3 of 3 |
| KSSQSVLYESENKNHVA | WASTRES | QRYHRLPLS | not detected | 0 of 3 |
| KSSQSVLYESRNFNSVA | WASFREF | QQYHRLPLS | 1.70 | 3 of 3 |
| KSSQSVEYEMRNKNSVA | WASTRES | QQGHRLPLS | 5.57 | 1 of 3 |
| KSSQSPLYESRNKNSVA | WASTRES | QQYHIWPLS | not detected | 0 of 3 |
| KSSQSVLYESRNNNSVA | WASTRES | QQYHWLPTS | 4.34 | 3 of 3 |
| KSSQSVLYESCNKNSVA | HASTRES | QQTHRLPLS | 2.21 | 3 of 3 |
| NSSQSVLYESRNKNSVA | WASTRES | QQYCRLPLS | 2.25 | 3 of 3 |
| KSSQSVLYESRNKNSVN | WASTREW | QQYHRTPLS | not detected | 0 of 3 |
| KSSQSVLYEYRGKNSVA | WASTRED | QQYHRLPLS | 3.26 | 2 of 3 |
| KMPQSVLYESRNKNSVA | WASTIES | QQYHRLPLS | 0.65 | 3 of 3 |
| KSSQKVLYESRNYNSVA | WASTRES | QQYHRLPLS | not detected | 0 of 3 |
| KSSQSVGYESRNKNNVA | WASTRES | QQYHYLPLS | 0.84 | 3 of 3 |
| QSSQSVLYESRNKNSVA | WPSTRES | QQPHRLPLS | not detected | 0 of 3 |
| KSSQSVLYESMNKNSYA | WALTRES | QQYHRLPLS | not detected | 0 of 3 |
| KSSQSGKYESRNKNSVA | WASTRES | QQYHNLPLS | 1.30 | 3 of 3 |
| KSSQEVLYESRNKNDVA | WVSTRES | QQYHRLPLS | 3.43 | 2 of 3 |
| KSSQSVLYESRNKNSVA | WASTCES | QQQHRLPGS | 4.50 | 1 of 3 |
| QSSQSVLAESRNKNSVA | WASTRES | QQYHRLDLS | 3.28 | 1 of 3 |
| KSSQSVLYEQRNKNSWA | WAATRES | QQYHRLPLS | not detected | 0 of 3 |
| KSSQSVLYEFRNKDSVA | WASTRES | QLYHRLPLS | 3.99 | 2 of 3 |
| KSSQSSLYESRNKNSVA | WANTRES | QQAHRLPLS | not detected | 0 of 3 |
| KSSQSVLYESRNKNSVA | WASVIES | QHYHRLPLS | not detected | 0 of 3 |
| KSSNSVLYESRNKNSVA | WASMRES | FQYHRLPLS | 4.07 | 1 of 3 |
| KSSQSVLYESRNKNKVA | WASTRNS | QFYHRLPLS | 5.23 | 2 of 3 |
| KSSQSVLYESRNKNSVA | WASTRES | RQFHCLPLS | 1.21 | 3 of 3 |
| KSSQSVLYESRNKNSVA | WAGTRES | QQYARYPLS | 0.99 | 3 of 3 |
| KSSQSVHYESRNKNSVA | WASTREY | QQYYRLPLS | 1.21 | 3 of 3 |
| KSSQSVLYESRNKNPVM | SASTRES | QQYHRLPLS | not detected | 0 of 3 |
| KSQQSVLFESRNKISVA | WASTRES | QQYHRLPLS | 3.70 | 2 of 3 |
| KSSQSVLYESLNKNSVA | WGSTRES | QQRHRLPLS | 0.85 | 3 of 3 |
| KSSQSVLFESRNKNNVA | WASTREM | QQYHRLPLS | 1.12 | 3 of 3 |
| KSSVSVNYESRNKNSVA | WASTRES | QQYSRLPLS | not detected | 0 of 3 |
| KSSQSVLYESRNKNSVA | WADTRES | QQYQRLPLR | 2.75 | 3 of 3 |
| KSSQSVLYESRNWNSVA | WASTRNS | QQYHYLPLS | 4.22 | 2 of 3 |
| KSDQSVLYESRCKNSVA | WASTRES | QQYHRLPLG | 2.58 | 3 of 3 |
| KSSISVLCESRNKNSVA | WASTREW | QQYHRLPLS | 2.18 | 3 of 3 |
| KFSQSVWYESRNKNSVA | WASTQES | QQYHRLPLS | 2.19 | 3 of 3 |
| KSSQSVLYESCNKLSVA | WASTRES | QQYHKLPLS | 3.10 | 3 of 3 |
| KISQSVLYESRNKNSAA | WASTMES | QQYHRLPLS | 4.62 | 1 of 3 |
| KSSQSVLYESRNKNSVA | WADTPES | QQYSRLPLS | 1.51 | 3 of 3 |
| KSSQSVLYESRNKNSVA | WAWTRES | QQYHSLDLS | 3.88 | 2 of 3 |
| KSSQSVLYESRNPNSVA | WASTREF | QQYHRKPLS | not detected | 0 of 3 |
| KSSQSVLYISRNKNSVA | WASTRES | QSGHRLPLS | 3.28 | 3 of 3 |
| KSSQSVLQESRNKNSVA | WASLRES | QQYHRLNLS | 3.30 | 3 of 3 |
| NSSQSVLYESRNKNCVA | WASTRES | QQYARLPLS | 1.93 | 3 of 3 |
| WSSQSVLYESANKNSVA | WASDRES | QQYHRLPLS | 3.74 | 3 of 3 |
| KSSQSVLYESRNKNSVA | WACTAES | QQYHRLPLK | 3.34 | 1 of 3 |
| KSSQSVLVESRNKNSVA | WASTRES | QQVHRLPLE | 4.69 | 2 of 3 |
| KSSQSVLYESRNKNSVA | WASTRES | QQYHVTPAS | not detected | 0 of 3 |
| KWSQSVLYESRNKNSWA | WASTRES | QFYHRLPLS | 4.02 | 1 of 3 |
| KSSQSVLYESRNKNSVA | WCSTRES | QQYHRLILS | 2.04 | 2 of 3 |
| KSSQSVLYESRNKNSGA | WASTRES | QEYHRLPLP | 4.75 | 2 of 3 |
| KSSQSVLYESRNKNSVA | WALTQES | QQYHRWPLS | not detected | 0 of 3 |
| KSSQSVLYESRNLNSVA | WASTRES | QQCHRLPHS | 2.47 | 1 of 3 |
| KSSQSVLYESRNKNSVA | WANTRHS | QQYHMLPLS | 1.44 | 3 of 3 |
| KSSQSVLYESRNKNSVE | WHSTRES | QQYHMLPLS | 2.81 | 1 of 3 |
| KSSQFVLYEQRNKNSVA | WASTRES | QQYHRLYLS | not detected | 0 of 3 |

The 11 strongest on average among those seen in every replicate, once more:

CDR-L1,CDR-L2,CDR-L3,mean log10 Kd (nM),detected
QISQSVLYESRNKNSVA,WASTRES,EQYHRLPLS,0.37,3 of 3
KTSQSCLYESLNKNSVA,WASTRES,QQYHRLPLS,0.63,3 of 3
KMPQSVLYESRNKNSVA,WASTIES,QQYHRLPLS,0.65,3 of 3
KSSQSVGYESRNKNNVA,WASTRES,QQYHYLPLS,0.84,3 of 3
KSSQSVLYESLNKNSVA,WGSTRES,QQRHRLPLS,0.85,3 of 3
KSSQSVLYESRNKNSVA,WAGTRES,QQYARYPLS,0.99,3 of 3
KSSQSVLFESRNKNNVA,WASTREM,QQYHRLPLS,1.12,3 of 3
KSSQSVLYESRNKNSVA,WASTRES,RQFHCLPLS,1.21,3 of 3
KSSQSVHYESRNKNSVA,WASTREY,QQYYRLPLS,1.21,3 of 3
KSSQSGKYESRNKNSVA,WASTRES,QQYHNLPLS,1.30,3 of 3
KSSQSVLYESRHYNSVA,WASTRES,QQYHILPLS,1.42,3 of 3

Empty control strains, which show no peptide, gave a signal in 18% of pairings with library AAYL50; the median was 4.19 and 95% of these signals were weaker than 2.99. No background was subtracted.